From US11497751B2, “Modulators of Rho-associated protein kinase” (Redx Pharma PLC, priority 2018, dated 2022)

Protein sequences, listed by entry. Tags and fused reporters are not part of them. Residues count along the entry.
UniProt O75116, 11-552 limits assumed: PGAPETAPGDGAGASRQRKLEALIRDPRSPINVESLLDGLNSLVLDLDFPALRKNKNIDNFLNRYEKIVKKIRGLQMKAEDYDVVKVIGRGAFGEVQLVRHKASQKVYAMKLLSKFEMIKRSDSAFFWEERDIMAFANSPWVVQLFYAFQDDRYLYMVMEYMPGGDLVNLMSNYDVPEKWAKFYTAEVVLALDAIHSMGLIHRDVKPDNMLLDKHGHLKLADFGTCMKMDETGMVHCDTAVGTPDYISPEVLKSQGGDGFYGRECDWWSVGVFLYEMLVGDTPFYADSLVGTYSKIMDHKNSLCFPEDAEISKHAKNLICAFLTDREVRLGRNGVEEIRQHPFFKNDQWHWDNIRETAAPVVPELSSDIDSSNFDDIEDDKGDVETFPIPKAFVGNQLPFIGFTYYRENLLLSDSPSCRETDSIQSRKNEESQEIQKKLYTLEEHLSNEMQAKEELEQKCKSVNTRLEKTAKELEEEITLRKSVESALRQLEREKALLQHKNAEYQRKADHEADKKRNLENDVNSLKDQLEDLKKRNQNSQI

Target: N-terminal 6His-tagged ROCK2 catalytic domain 11-552 (Homo sapiens, UniProt O75116)
Assay: ROCK2 binding activity: ROCK2 inhibition, ADP-Glo Kinase Assay
Conditions: read-out: ADP-Glo kinase activity assay ROCK2 Category; 1.25 nM ROCK2, 100 μM long S6 peptide, 20 μM ATP; 1 hour pre-incubation
Protocol: Assay for ROCK2 inhibition was performed using the protein construct N-terminal 6His-tagged ROCK2 catalytic domain 11-552 (Dundee University, UK). Protein was purified from a baculovirus expression system. Long S6 peptide ([…]) was used as substrate. Kinase reactions were carried out in 15 μl volume in a 96-well plate (black, half area) using 1.25 nM constitutively active ROCK2 kinase, 100 μM long S6 peptide, 20 μM ATP and test compound in DMSO (or DMSO only for controls). The final concentration of DMSO was 1%. Assay buffer was 50 mM HEPES pH 7.5 supplemented with 0.2 mM EDTA, 10 mM magnesium acetate, 0.01% Tween-20, 1 mM DTT and 0.01% BSA. Test compounds were pre-incubated with ROCK2 kinase for 1 hour before addition of ATP and long S6 peptide. After incubation for a further 1 hour, the amount of ADP produced was measured using ADP-Glo Kinase Assay (Promega) as per manufacturer's instructions. The luminescence was measured on a PHERAstar FS (BMG Labtech). The concentration of test compound required to inhibit ADP production by 50% (the IC50) was calculated using a four-parameter logistic function with software by Dotmatics.
The category “+” refers to compounds with a ROCK2 IC50 value of >10 μM. The category “++” refers to compounds with a ROCK2 IC50 value of 10 to 3 μM. The category “+++” refers to compounds with a ROCK2 IC50 value of 3 to 0.3 μM. The category “++++” refers to compounds with a ROCK2 IC50 value of <0.3 μM.

Compound | IC50 [nM]
CC(NC(=O)c1ccc(-c2nc(Nc3ccc4[nH]ncc4c3C3CC3)n(C)n2)cc1)C(F)(F)F (stereo not drawn) | < 300
COc1cc(-c2nc(Nc3ccc4[nH]ncc4c3Cl)n(C)n2)ccc1C(=O)NC(C)C(F)(F)F (stereo not drawn) | < 300
COc1ccc(-c2nc(Nc3ccc4[nH]ncc4c3)nn2C)cc1OC | 3000 to 10000
Cn1nc(Br)nc1Nc1ccc2[nH]ncc2c1Cl | 3000 to 10000
Cc1cc2cn[nH]c2cc1-c1nc(Nc2ccc3[nH]ncc3c2Cl)n(C)n1 | 300 to 3000
Cn1nc(-c2ccc(C(=O)NCC(F)F)cc2)nc1Nc1ccc2[nH]ncc2c1C1CC1 | < 300
Cn1nc(C2=CCNCC2)nc1Nc1ccc2[nH]ncc2c1Cl | < 300

Results, then the molecule that gave them:

IC50 [nM] | Compound
< 300 | CC(C)CNC(=O)c1ccc(-c2nc(Nc3ccc4[nH]ncc4c3C3CC3)n(C)n2)cc1
< 300 | Cn1nc(-c2cccc(O)c2)nc1Nc1ccc2[nH]ncc2c1Cl
< 300 | COc1cccc(-c2nc(Nc3ccc4[nH]ncc4c3Cl)n(C)n2)c1
< 300 | Cn1nc(-c2ccc(N3CCOCC3)nc2)nc1Nc1ccc2[nH]ncc2c1Cl
300 to 3000 | COc1cc(-c2nc(Nc3ccc4[nH]ncc4c3Cl)n(C)n2)ccc1CNC(C)=O
300 to 3000 | COc1ncccc1-c1nc(Nc2ccc3[nH]ncc3c2Cl)n(C)n1
300 to 3000 | CN1CCN(Cc2ccc(-c3nc(Nc4ccc5[nH]ncc5c4Cl)n(C)n3)cc2)CC1
300 to 3000 | CC(C)NC(=O)CN1CCCc2cc(-c3nc(Nc4ccc5[nH]ncc5c4Cl)n(C)n3)ccc21
